Source: US12685773B2 (priority 2020, dated 2026)
Read-outs that look alike come from different tables or passages of the source.

System: relapsed or refractory CD30+ Hodgkin Lymphoma
Settings: classical HL patients with measurable disease at time of treatment

## Cn1c(CCCC(=O)O)nc2cc(N(CCCl)CCCl)ccc21 [Benda]
  RR: CR, %: (0%)
  RR: PD, %: (80%)
  RR: PR, %: (0%)
  RR: SD, %: (20%)
Lugano criteria, 6-8 weeks after infusion
  ORR (CR + PR): %: (0%)
Lugano criteria, 6-8 weeks after infusion, listed as Bendamustine
  ORR (CR + PR): n: 0
Lugano criteria, 6-8 weeks after infusion, listed as bendamustine alone
  ORR (CR + PR): n: None of the 5 patients with active disease showed objective clinical responses
